Target: T1, PutA (proline utilization A) (Escherichia coli, UniProt P09546)
T1 sequence (P09546 1-1320): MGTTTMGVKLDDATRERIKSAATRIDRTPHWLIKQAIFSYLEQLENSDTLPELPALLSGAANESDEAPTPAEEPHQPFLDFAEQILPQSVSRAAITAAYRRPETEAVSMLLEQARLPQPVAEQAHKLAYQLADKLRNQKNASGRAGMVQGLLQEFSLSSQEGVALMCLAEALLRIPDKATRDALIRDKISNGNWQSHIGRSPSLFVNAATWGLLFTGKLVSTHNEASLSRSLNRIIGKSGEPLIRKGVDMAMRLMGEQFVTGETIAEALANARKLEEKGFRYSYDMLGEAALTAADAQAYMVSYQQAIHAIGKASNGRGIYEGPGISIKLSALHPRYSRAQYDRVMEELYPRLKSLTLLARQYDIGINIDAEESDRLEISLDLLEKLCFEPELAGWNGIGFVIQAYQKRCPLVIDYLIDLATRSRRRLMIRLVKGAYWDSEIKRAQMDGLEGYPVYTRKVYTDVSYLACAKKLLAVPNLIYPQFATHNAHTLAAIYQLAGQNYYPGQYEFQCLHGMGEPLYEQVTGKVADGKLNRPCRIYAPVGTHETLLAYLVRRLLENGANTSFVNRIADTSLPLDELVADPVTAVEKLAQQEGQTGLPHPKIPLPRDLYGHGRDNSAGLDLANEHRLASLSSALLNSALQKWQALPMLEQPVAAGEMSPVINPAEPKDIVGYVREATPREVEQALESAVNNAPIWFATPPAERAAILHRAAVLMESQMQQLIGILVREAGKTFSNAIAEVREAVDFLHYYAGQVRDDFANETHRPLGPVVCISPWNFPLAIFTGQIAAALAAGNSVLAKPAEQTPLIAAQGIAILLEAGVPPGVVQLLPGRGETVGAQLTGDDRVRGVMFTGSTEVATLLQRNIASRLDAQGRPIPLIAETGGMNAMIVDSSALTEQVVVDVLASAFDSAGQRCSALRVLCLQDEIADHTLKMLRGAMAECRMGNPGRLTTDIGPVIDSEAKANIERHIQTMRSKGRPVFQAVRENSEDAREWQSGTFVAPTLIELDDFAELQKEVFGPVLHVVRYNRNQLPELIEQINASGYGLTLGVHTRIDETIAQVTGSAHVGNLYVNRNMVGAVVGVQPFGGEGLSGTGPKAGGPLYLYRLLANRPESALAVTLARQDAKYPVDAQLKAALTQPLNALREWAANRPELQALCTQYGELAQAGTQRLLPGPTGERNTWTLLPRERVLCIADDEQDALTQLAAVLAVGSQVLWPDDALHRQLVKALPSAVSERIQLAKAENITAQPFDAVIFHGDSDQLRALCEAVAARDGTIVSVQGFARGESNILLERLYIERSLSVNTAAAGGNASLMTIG
Experiment: anaerobic stopped-flow, A476 of FAD, koff/kon
Format: binding

Question: How did the Kd turn out when `O=C(O)[C@@H]1CCCO1` [THFA, L-tetrahydro-2-furoic acid] was run?
Answer: 13.5 mM
